Test results from patent US6878716B1, “Compounds specific to adenosine A1 receptor and uses thereof” (OSI Pharmaceuticals, Inc., priority 1998, dated 2005).

Amino acid sequences for entries named in this document (tags omitted).
UniProt P30542, whole entry: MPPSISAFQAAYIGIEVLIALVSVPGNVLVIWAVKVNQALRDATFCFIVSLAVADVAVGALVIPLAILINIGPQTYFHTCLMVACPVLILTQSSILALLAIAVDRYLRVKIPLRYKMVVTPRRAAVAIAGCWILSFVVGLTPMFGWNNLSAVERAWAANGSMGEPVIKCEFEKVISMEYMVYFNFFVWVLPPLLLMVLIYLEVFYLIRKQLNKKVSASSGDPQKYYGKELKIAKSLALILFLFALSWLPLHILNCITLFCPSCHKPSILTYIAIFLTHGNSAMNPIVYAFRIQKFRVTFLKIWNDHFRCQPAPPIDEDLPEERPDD

Tests used:
[1] = target: T1, human A2b receptor subtype (Homo sapiens, UniProt P29275); experiment: Adenosine 2b receptor subtype competition radioligand binding ([3H]DPCPX, HEK293 membranes); details: Table 13
T1 construct: expressed in transfected cells; host or cells: HEK293
T1 sequence (P29275 1-332): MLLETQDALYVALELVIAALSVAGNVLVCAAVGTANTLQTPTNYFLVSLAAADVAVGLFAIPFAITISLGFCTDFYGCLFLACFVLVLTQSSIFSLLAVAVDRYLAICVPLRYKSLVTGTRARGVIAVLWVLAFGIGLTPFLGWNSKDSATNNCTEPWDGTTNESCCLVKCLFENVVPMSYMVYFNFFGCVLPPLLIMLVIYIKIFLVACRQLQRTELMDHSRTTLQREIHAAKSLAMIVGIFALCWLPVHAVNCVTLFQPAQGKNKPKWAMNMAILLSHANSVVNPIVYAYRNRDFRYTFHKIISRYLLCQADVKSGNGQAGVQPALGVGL

[2] = target: T2, human A2a receptor subtype (Homo sapiens, UniProt P29274); experiment: Adenosine 2a receptor subtype competition radioligand binding ([3H]CGS-21680, HEK293 membranes); details: Table 13
T2 construct: expressed in transfected cells; host or cells: HEK-293 (Cadus clone # 5)

[3] = target: human A1 receptor subtype (Homo sapiens, UniProt P30542); experiment: biochemical

Ki [1]	Ki [2]	Ki [3]	Compound
109 nM	109 nM	–	CC(=O)NC1CCCN(Nc2nc(-c3ccccc3)nc3[nH]c(C)c(C)c23)C1 (stereo not drawn) [Compound 1309]
–	–	29.1 nM	Cc1[nH]c2nc(-c3ccccc3)nc(NC3CC[C@@H](O)C3)c2c1C (stereo partly drawn) [Compound 1307]
